{
  "source": "patent US6854395B2",
  "about": "“Inflator for an air bag” (dated 2005)",
  "origin": "cited, not measured here",
  "tested_on": "rat",
  "data": [
    {"smiles": "NNc1nc(NN)nc(NN)n1", "values": [
      {"measurement": "LD50 (oral-rat)", "result": 3161, "unit": "mg/kg"}
    ]}
  ]
}
